Reference: patent publication US8741886B2, “Baclofen and acamprosate based therapy of neurological disorders” (Pharnext, priority 2011, dated 2014)

Tested on: Human brain microvascular endothelial cerebral cells (HBMEC)
Assay: Toxicity of human Aβ1-42 peptide on HBMEC: total length of capillary network
Format: cell-based
Details: VEGF 10 nM, 1 h pre-treatment; Aβ1-42 2.5 μM, 18 h
Method: Human brain microvascular endothelial cell cultures were used to study the protection afforded by candidate compound(s) on Aβ1-42 toxicity.
Human brain microvascular endothelial cerebral cells (HBMEC, ScienCell Ref: 1000, frozen at passage 10) were rapidly thawed in a waterbath at +37° C. The supernatant was immediately put in 9 ml Dulbecco's modified Eagle's medium (DMEM; Pan Biotech ref: P04-03600) containing 10% of foetal calf serum (FCS; GIBCO ref 10270-106). […]
• Negative Control: medium alone+0.1% DMSO • Intoxication: amyloid-β1-42 (2.5 μM) for 18 h • Positive control: VEGF-165 (10 nM) (1 reference compound/culture) 1 hr before the Aβ1-42 (2.5 μM) addition for a 18 h incubation time. • Test compounds: Test compound(s) 1 hr before the Aβ1-42 (2.5 μM) addition for a 18 h incubation time. Capillary Network Quantification
Per well, 2 pictures with 4× lens were taken using InCell Analyzer™ 1000 (GE Healthcare) in light transmission. […] The total length of capillary network was assessed.
Data were expressed in percentage of control conditions (no intoxication, no amyloid=100%) in order to express the amyloid injury. All values were expressed as mean+/−SEM (s.e.mean) of the 3 cultures (n=6 wells per condition). […]

## VEGF
  protection of capillary network (% of capillary network compared to amyloid intoxication): 70%
